Antibody variant affinities, Ab-14 light chain, assay B

From the AlphaSeq antibody data of Li et al. 2023 (doi:10.1038/s41467-023-39022-2), copy in the FLAb collection.

All variants were tested on one target, the spike HR2 peptide PDVDLGDISGINAS (SARS-CoV-2).

Parent scFv Ab-14: VH joined to VL by a (GGGGS)3 linker. Changes lie in the light chain CDRs alone.
VH: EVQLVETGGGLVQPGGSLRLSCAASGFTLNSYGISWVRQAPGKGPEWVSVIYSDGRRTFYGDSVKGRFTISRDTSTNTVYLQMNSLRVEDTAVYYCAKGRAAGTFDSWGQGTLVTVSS
VL: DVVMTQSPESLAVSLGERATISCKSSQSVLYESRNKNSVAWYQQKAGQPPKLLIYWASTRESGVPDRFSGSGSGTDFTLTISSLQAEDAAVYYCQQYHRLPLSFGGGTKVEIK

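The starting antibody came from a phage panning campaign against this peptide. This is the validation round: designs drawn from the data on random variants, tested in the same kind of assay. Their group label is 14L_GP_HC (GP: Gaussian process model; HC: hill climbing; a sequence that several methods proposed may carry one label only). The scFvs were displayed on barcoded MATa yeast, the peptide on MATalpha yeast. Mating (16 h, 30 °C) was followed by selection of diploids and sequencing of their barcodes. The ratio of observed to expected reads was calibrated, replicate by replicate, on BCL2-family standards whose Kd was known from biolayer interferometry. There are six technical replicates.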

Substitutions are numbered in sequence along the VL above, starting at 1 (not Kabat). Values are log10 of the apparent Kd in nM; lower means stronger binding. Averages over replicates are reported, and they cover detected replicates only. An entry "nd" has no value in the source: the pair was not observed among the diploids in that replicate. This suggests poor binding but is not conclusive. The parent sequence was in this pool as ten entries: three were never detected, three once, and four in most replicates, with averages from 0.34 to 2.37.

With K24H/Q27P/L30A/W56A the result was 0.29, 0.15, 0.15, 0.14, 0.10, 0.33 (mean 0.19; controls 0 of 18).
With V29D/W56H/S62Q the result was 0.13, 0.16, -0.06, -0.07, -0.05, 0.01 (mean 0.02; controls 0 of 18).
With S25Q/W56D/S103F the result was 0.07, -0.09, -0.35, -0.17, -0.13, -0.09 (mean -0.13; controls 3 of 18).
With Q27W/Y31F/W56D/E61C the result was 0.41, 0.22, 0.06, 0.09, 0.08, 0.45 (mean 0.22; controls 0 of 18).
With S25Q/S26Q/S33G/W56D the result was 0.12, -0.34, -0.03, -0.30, -0.42, -0.01 (mean -0.16; controls 1 of 18).
With K24N/S25W/V29W/W56G/A57G/S58N the result was -0.32, -0.29, -0.50, -0.67, -0.44, -0.32 (mean -0.42; controls 2 of 18).
With S25Q/S28A/V29D/W56D/S58N the result was 0.52, 0.62, 0.26, 0.48, 0.61, 0.45 (mean 0.49; controls 2 of 18).
With S25L/W56D/L102I the result was 0.13, 0.12, -0.24, -0.12, -0.06, -0.01 (mean -0.03; controls 0 of 18).
With Y31F/E32Q/W56D the result was 0.18, 0.27, 0.62, 0.29, 0.35, 0.32 (mean 0.34; controls 0 of 18).
With Q27I/V29Y/R34T/K36E/W56E/S62Q the result was 1.19, 0.76, 0.85, 1.41, 1.03, 1.35 (mean 1.10; controls 2 of 18).
With S25F/N35T/K36S/S38D/W56N the result was 0.50, 0.48, 0.46, 0.46, 0.22, 0.60 (mean 0.45; controls 1 of 18).
With S25L/V29W/Y31M/W56E the result was -0.09, 0.43, 0.25, 0.17, 0.34, 0.54 (mean 0.27; controls 0 of 18).
With S26G/S28G/W56G/T59Q/E61M the result was -0.10, -0.08, 0.15, -0.48, 0.01, 0.32 (mean -0.03; controls 1 of 18).
With K24S/S25L/S26M/W56H/T59L/S62M the result was 0.82, 0.56, 0.46, 0.60, 0.66, 0.77 (mean 0.65; controls 4 of 18).
With Q27I/V29L/K36T/W56E the result was 1.20, 1.44, 0.64, 0.40, -0.11, 1.19 (mean 0.79; controls 0 of 18).
With Q27W/L30K/Y31F/W56D the result was 0.35, 0.40, 0.03, -0.15, 0.03, 0.27 (mean 0.16; controls 1 of 18).
With S26G/W56G/T59Q/E61W the result was 0.46, 0.47, 0.40, 0.36, 0.60, 0.31 (mean 0.43; controls 1 of 18).
With V29E/W56G/Q96A the result was 0.33, 0.35, 0.30, 0.12, 0.47, 0.41 (mean 0.33; controls 2 of 18).
With S26E/S28G/V29A/W56G the result was 0.45, 0.12, 0.33, 0.07, 0.46, 0.63 (mean 0.34; controls 2 of 18).
With S25L/S26L/V29Q/L30E/W56H/S62D/R99C the result was nd, 1.02, 1.12, nd, 0.77, 1.76 (mean 1.17; controls 0 of 18).
With S25V/V29W/Y31M/W56E/E61R the result was 0.50, 0.48, 0.57, 0.42, 0.45, 0.67 (mean 0.52; controls 2 of 18).
With S25M/S26E/S28G/W56G the result was 0.06, -0.05, -0.13, -0.11, -0.14, 0.12 (mean -0.04; controls 2 of 18).
With S25M/S26E/W56G the result was -0.06, -0.22, -0.32, -0.37, -0.18, -0.15 (mean -0.22; controls 4 of 18).
With S25M/Y31M/S33H/R34M/W56D/T59L the result was 0.20, 0.25, 0.36, 0.13, 0.06, 0.11 (mean 0.18; controls 2 of 18).
With S25Q/V29E/L30A/Y31C/W56D the result was -0.06, -0.31, -0.30, -0.48, -0.14, 0.09 (mean -0.20; controls 2 of 18).
With S25L/S26T/Q27N/V29T/N35Q the result was 1.08, 0.81, 0.73, 1.00, 0.83, 0.90 (mean 0.89; controls 0 of 18).
With V29W/L30P/W56G the result was 0.57, 0.22, -0.12, 0.08, 0.34, 0.31 (mean 0.23; controls 0 of 18).
With S25L/S26P/S28G/V29A/W56G the result was -0.03, -0.07, -0.21, -0.41, -0.36, -0.11 (mean -0.20; controls 1 of 18).
With Q27Y/V29Y/K36E/W56E/S62Q the result was 1.49, 0.86, 1.03, nd, nd, 0.53 (mean 0.98; controls 0 of 18).
With S25Q/Q27P/R34V/W56D the result was -0.39, -0.16, -0.27, -0.02, -0.48, -0.02 (mean -0.22; controls 0 of 18).
With S26D/S28G/W56G/T59L the result was 0.24, 0.09, 0.00, 0.06, -0.08, 0.10 (mean 0.07; controls 2 of 18).
With V29D/L30H/W56G the result was -0.01, -0.13, 0.09, -0.46, -0.14, -0.19 (mean -0.14; controls 1 of 18).
With S25A/S26L/V29W/W56H/S62Q the result was 0.37, 0.28, 0.14, 0.30, 0.38, 0.52 (mean 0.33; controls 2 of 18).
With V29F/W56G/Q96N/P101T the result was 0.91, 0.08, -0.07, 0.67, -0.04, 0.10 (mean 0.27; controls 0 of 18).
With S25V/N35M/W56D/E61C/S103T the result was 0.29, 0.20, -0.05, 0.57, 0.35, 0.38 (mean 0.29; controls 0 of 18).
With S25L/S26D/V29T/E61L the result was 0.38, 0.45, 0.14, 0.32, 0.21, 0.13 (mean 0.27; controls 1 of 18).

Top 2 of the variants detected in all replicates, tightest first:

changes,"replicates, log10 nM","mean, log10 nM",signal with controls
K24N/S25W/V29W/W56G/A57G/S58N,"-0.32, -0.29, -0.50, -0.67, -0.44, -0.32",-0.42,2 of 18
S25Q/Q27P/R34V/W56D,"-0.39, -0.16, -0.27, -0.02, -0.48, -0.02",-0.22,0 of 18

Three control strains display no target. For all light chain designs, 4% of the pairings with them gave a signal, with a median of 2.64 and one signal in twenty below 1.59, so weak values seen in few replicates may be background. Also given: how often the same scFv was detected with the empty control strains. A sequence measured in both rounds can read differently, since the two assays cover different ranges. The authors' rule: three or more of the six replicates give a measured affinity, fewer mean a poor binder.